The assay deals with hypertensive patients with coronary artery disease.

Structures are written as SMILES.

Regarding `CC(C)NCC(O)COc1ccc(CC(N)=O)cc1` (stereo not drawn) [atenolol], the “Modification of the adverse effect of ADRB2 46G-79C-523C haplotype on primary outcome” value (Example 4) is reported as “Neither atenolol nor verapamil SR modified the adverse effect of this haplotype”. Further, for the setting “patients treated with verapamil vs atenolol, FIG. 23”, the “Systolic and diastolic blood pressure control” value is “did not differ”. The “Risk for the primary outcome, atenolol- vs verapamil SR-treated patients” value (within each ADRB1 145A-1165C haplotype strata) is on record as “similar”.

The values are drawn from patent US20100021903A1, “Use of Genetic Determinants in Cardiovascular Risk Assessment” (priority 2006, published 2010).
